Chains of the proteins cited; added tags and fusions are not shown. Residues count along the entry.
UniProt P35222, 2-781 limits assumed: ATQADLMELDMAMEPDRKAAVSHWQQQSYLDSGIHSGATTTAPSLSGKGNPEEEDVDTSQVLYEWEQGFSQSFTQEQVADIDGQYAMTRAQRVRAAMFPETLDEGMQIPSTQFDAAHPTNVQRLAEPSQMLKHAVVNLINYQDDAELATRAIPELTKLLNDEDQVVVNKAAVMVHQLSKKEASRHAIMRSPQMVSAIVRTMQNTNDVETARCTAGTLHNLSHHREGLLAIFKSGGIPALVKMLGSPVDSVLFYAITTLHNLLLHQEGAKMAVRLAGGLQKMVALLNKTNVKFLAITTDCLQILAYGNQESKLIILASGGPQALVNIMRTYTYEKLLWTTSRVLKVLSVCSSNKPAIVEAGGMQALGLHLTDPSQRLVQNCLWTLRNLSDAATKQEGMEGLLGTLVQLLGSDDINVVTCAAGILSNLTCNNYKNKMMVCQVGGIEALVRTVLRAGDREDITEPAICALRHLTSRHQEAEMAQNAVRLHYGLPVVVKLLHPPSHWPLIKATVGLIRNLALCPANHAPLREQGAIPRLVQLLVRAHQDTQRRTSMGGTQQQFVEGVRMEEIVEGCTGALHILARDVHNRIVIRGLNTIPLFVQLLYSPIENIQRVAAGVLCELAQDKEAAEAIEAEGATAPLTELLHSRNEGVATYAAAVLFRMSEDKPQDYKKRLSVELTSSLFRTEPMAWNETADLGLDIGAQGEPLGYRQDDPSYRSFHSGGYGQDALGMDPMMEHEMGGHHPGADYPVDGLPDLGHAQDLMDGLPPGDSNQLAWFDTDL
UniProt P35222, whole entry, species assumed: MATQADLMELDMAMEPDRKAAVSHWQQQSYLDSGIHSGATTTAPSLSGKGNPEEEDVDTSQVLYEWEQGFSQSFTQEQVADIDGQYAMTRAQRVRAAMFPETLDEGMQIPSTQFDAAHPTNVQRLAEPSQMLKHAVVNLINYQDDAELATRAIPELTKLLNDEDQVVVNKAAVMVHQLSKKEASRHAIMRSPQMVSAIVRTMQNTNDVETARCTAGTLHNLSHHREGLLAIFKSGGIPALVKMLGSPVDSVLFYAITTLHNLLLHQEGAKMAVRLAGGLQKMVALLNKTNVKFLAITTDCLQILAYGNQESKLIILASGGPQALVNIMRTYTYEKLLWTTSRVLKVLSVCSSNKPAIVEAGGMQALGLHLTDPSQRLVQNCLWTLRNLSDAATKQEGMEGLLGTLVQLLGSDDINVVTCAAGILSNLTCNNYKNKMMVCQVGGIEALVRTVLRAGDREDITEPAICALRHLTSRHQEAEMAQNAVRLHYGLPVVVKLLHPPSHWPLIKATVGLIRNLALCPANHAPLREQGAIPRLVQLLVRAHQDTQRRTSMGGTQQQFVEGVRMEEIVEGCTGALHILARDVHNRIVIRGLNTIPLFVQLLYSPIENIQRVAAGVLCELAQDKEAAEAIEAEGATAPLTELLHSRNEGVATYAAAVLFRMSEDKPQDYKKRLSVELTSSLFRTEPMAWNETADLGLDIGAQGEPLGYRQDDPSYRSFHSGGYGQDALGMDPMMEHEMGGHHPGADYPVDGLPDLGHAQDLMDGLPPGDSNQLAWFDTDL

In patent US9173871B2, “Oxazole and thiazole compounds as beta-catenin modulators and uses thereof” (New York University, priority 2008, dated 2015):

Experiments:
[1] = molecular target: T1, AR and β-catenin interaction (Homo sapiens, UniProt P35222); assay: Co-immunoprecipitation of AR and β-catenin from LNCaP nuclear extracts; type: cell-based; settings: 10 nM R1881, 20 μM C3, 4 hr
T1 construct: Nuclear extracts were immunoprecipitated with anti-AR antibody or normal mouse IgG; endogenous in cells; host or cells: LNCaP cells (nuclear extracts)
Method: (§1) A) LNCaP cells were androgen-deprived for 48 hr and then treated with vehicle or 10 nM R1881 with or without 20 μM C3 for 4 hr. Nuclear extracts were immunoprecipitated with anti-AR antibody or normal mouse IgG followed by immunoblotting (IB) with indicated antibodies. B) LNCaP cells were hormone deprived for 3 days and then treated with vehicle or 100 nM DHT with or without 20 μM C3 for 2, 4 or 16 hr. Cells were crosslinked and chromatin was immunoprecipitated with β-catenin or IgG antibody. The precipitated DNA of the PSA enhancer was analyzed by Q-PCR. The results are presented as a percentage of input.
(§2) 280(45): 37853-67; Yumoto et al., Proc Natl Acad Sci USA, 2012. 109(1): 143-8]. […] To test this hypothesis, LNCaP cells were treated with 10 nMR1881 in the presence or absence of C3.

[2] = molecular target: T2, β-catenin on the PSA enhancer (Homo sapiens, UniProt P35222); assay: Chromatin immunoprecipitation (ChIP) of β-catenin on the PSA enhancer in LNCaP cells; type: cell-based; settings: 100 nM DHT, 20 μM C3
T2 construct: Cells were crosslinked and chromatin was immunoprecipitated with β-catenin or IgG antibody; endogenous in cells; host or cells: LNCaP cells
Method: as §1, §2

[3] = molecular target: β-catenin and TCF4 interaction (Homo sapiens, UniProt P35222); settings: Gonsalves et al., PNAS 2011; cited from earlier work

SMILES: CCc1ccc(-c2nc(CSCC(=O)NCCc3ccccc3)c(C)o2)cc1 [Compound C3]
- AR interaction with β-catenin [1]: greatly diminishes
- β-catenin on the PSA enhancer (ChIP) [2]: diminished
- β-catenin and TCF4 interaction [3]: interferes
